Measured values from EP2663342B1, “STABLE HYDROGEL COMPOSITIONS INCLUDING PHENYLEPHRINE” (ALLERGAN, INC., priority 2011, dated 2012).

Experiment: Aspect (color/clarity/homogeneity) of HA-based gel after autoclaving
Type: physicochemical
Settings: 1% (w/w), 3.5% (w/w), or 7% (w/w) TPGS in HA-based gel matrix; same before autoclaving

Which “aspect of gel after autoclaving” value does the source give for “Tocopherol polyethylene glycol 1000 succinate” here?
The value was “clear and uncolored”.
